B1: Myc proto-oncogene protein (Homo sapiens), P01106 (parent)
chain: MDFFRVVENQQPPATMPLNVSFTNRNYDLDYDSVQPYFYCDEEENFYQQQQQSELQPPAPSEDIWKKFELLPTPPLSPSRRSGLCSPSYVAVTPFSLRGDNDGGGGSFSTADQLEMVTELLGGDMVNQSFICDPDDETFIKNIIIQDCMWSGFSAAAKLVSEKLASYQAARKDSGSPNPARGHSVCSTSSLYLQDLSAAASECIDPSVVFPYPLNDSSSPKSCASQDSSAFSPSSDSLLSSTESSPQGSPEPLVLHEETPPTTSSDSEEEQEDEEEIDVVSVEKRQAPGKRSESGSPSAGGHSKPPHSPLVLKRCHVSTHQHNYAAPPSTRKDYPAAKRVKLDSVRVLRQISNNRKCTSPRSSDTEENVKRRTHNVLERQRRNELKRSFFALRDQIPELENNEKAPKVVILKKATAYILSVQAEEQKLISEEDLLRKRREQLKHKLEQLRNSCA

Variants of: B1
Conditions: with p49841-2 GSK3B

Variant	effect of a mutation on the interaction
T73D	increasing interaction
T73A;S77A	decreasing interaction
T73D;S77A	increasing interaction

The next lines start with the values.

effect of a mutation on the interaction	Variant
decreasing interaction	T73I
decreasing interaction	S77A
decreasing interaction	T73I;S77D

From IntAct's records for PubMed 20713710
